Target: soluble human BACE1 catalytic domain (Homo sapiens (Human), UniProt P56817)
Assay: BACE1 HTRF FRET Assay
Type: biochemical
Details: Ki calculated from IC50 using the Cheng-Prusoff equation; QSY7-APPswe-Eu substrate, pH 5.0
From the text: A homogeneous time-resolved FRET assay can be used to determine IC50 values for inhibitors of the soluble human BACE1 catalytic domain. This assay monitors the increase of 620 nm fluorescence that resulted from BACE1 cleavage of an APPswedish APP^swe mutant peptide FRET substrate (QSY7-[…]-Europium-amide). This substrate contains an N-terminal QSY7 moiety that serves as a quencher of the C-terminal Europium fluorophore (620 nm Em). In the absence of enzyme activity, 620 nm fluorescence is low in the assay and increased linearly over 3 hours in the presence of uninhibited BACE1 enzyme Inhibition of BACE1 cleavage of the QSY7-APP^swe-Eu substrate by inhibitors is manifested as a suppression of 620 nm fluorescence.
Reactions are initiated by addition of 10 μl of 600 nM QSY7-APP^swe-Eu substrate (200 nM final) to give a final reaction volume of 30 μl in a 384 well Nunc HTRF plate. The reactions are incubated at 30° C. for 1.5 hours. The 620 nm fluorescence is then read on a Rubystar HTRF plate reader (BMG Labtechnologies) using a 50 millisecond delay followed by a 400 millisecond acquisition time window Inhibitor IC50 values are derived from non-linear regression analysis of concentration response curves.

The chains behind the UniProt entries cited, without tags or fusion partners. Residues count along the entry.
UniProt P56817, 75-416: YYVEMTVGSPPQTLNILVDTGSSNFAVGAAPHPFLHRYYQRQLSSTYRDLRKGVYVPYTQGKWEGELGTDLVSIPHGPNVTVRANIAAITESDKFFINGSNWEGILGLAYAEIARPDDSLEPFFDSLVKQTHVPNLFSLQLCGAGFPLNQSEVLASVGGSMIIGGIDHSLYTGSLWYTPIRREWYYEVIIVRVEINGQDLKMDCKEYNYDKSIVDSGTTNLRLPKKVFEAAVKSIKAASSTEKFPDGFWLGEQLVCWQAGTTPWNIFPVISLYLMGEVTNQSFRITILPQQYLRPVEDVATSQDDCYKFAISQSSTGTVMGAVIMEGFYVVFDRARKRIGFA

COc1cnc(C(=O)Nc2ccc(F)c([C@]34COC(CF)[C@H]3S(=O)(=O)C(C)(C)C(=N)N4)c2)cn1 (single isomer, unassigned) [Example 4e]
Ki: 0.004 µM

COc1cnc(C(=O)Nc2ccc(F)c([C@]34COC(CF)[C@H]3S(=O)(=O)C(C)(C)C(=N)N4)c2)cn1 (single isomer, unassigned) [Example 4h]
Ki: 0.204 µM

Reference: patent US9365589B2, “C5, C6 oxacyclic-fused thiazine dioxide compounds as BACE inhibitors, compositions, and their use” (Merck Sharp & Dohme Corp., priority 2012, dated 2016)
